PMC12207590, “Substrate Specificity of the Organic Cation Transporters MATE1 and MATE2K and Functional Overlap with OCT1 and OCT2” (Journal of Medicinal Chemistry, 2025)

Tests used:
MATE2K = biological target: T1, MATE2K (Homo sapiens, UniProt Q86VL8); assay: Uptake ratio in MATE2K-overexpressing HEK293 cells vs empty vector ([…], 1 min, HPLC-MS/MS)
T1 sequence (Q86VL8 1-566 isoform Q86VL8-3): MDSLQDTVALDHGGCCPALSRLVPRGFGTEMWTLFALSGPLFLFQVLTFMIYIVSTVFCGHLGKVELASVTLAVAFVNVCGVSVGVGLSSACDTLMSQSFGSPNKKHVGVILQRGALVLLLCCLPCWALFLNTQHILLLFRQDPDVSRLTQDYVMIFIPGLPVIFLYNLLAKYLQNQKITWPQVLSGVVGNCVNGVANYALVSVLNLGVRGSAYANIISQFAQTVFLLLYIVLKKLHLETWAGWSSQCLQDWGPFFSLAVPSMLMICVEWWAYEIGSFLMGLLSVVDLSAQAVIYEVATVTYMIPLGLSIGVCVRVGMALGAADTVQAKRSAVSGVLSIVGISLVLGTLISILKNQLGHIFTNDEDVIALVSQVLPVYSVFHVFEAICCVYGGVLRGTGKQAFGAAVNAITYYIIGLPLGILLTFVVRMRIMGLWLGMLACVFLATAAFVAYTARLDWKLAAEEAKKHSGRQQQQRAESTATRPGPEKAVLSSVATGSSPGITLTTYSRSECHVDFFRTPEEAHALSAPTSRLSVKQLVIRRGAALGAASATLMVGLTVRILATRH

MATE1 = biological target: T2, MATE1 (Homo sapiens, UniProt Q96FL8); assay: Uptake ratio in MATE1-overexpressing HEK293 cells vs empty vector ([…], 1 min, HPLC-MS/MS)
T2 sequence (Q96FL8 1-570): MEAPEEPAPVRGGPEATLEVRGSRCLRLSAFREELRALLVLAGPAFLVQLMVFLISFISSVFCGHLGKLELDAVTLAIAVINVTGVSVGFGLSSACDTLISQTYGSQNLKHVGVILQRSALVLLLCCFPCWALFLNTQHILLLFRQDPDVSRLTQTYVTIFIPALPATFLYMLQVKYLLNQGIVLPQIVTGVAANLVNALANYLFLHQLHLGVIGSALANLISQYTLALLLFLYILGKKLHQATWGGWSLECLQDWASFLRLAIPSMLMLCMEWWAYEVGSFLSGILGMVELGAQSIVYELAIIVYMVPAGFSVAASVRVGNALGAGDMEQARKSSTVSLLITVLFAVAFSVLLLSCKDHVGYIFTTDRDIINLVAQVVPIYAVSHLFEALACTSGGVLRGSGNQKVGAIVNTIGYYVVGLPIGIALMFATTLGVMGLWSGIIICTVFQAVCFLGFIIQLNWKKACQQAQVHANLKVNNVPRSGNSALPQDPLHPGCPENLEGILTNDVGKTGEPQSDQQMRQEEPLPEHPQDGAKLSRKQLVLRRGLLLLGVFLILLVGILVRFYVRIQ

[1] = tested on: MATE1, MATE2K, OCT1, OCT2; assay: Substrate specificity and overlap among the four transporters (ratio cutoff 2); type: cell-based, human; details: transport ratio cutoff of 2
[2] = in vivo; cited from earlier work

| Molecule | MATE2K ratio (MATE2K) | MATE1 ratio (MATE1) | also measured |
| --- | --- | --- | --- |
| CCCN(CCC)CCc1cccc2c1CC(=O)N2 [Ropinirole] | 1.49 | 1.43 | – |
| O=P1(N(CCCl)CCCl)NCCCO1 (centres unmarked) [Cyclophosphamide] | 1.15 | 1.07 | – |
| CCCC(C)C1(CC)C(=O)NC(=O)NC1=O (centres unmarked) [Pentobarbital] | 1.17 | 1.14 | – |
| COc1cc(CCN)cc(OC)c1OC [Mescaline] | 1.56 | 4.00 | – |
| NCC1(CC(=O)O)CCCCC1 [Gabapentin] | 1.04 | 0.75 | – |
| N=C(N)NC(=O)c1nc(Cl)c(N)nc1N [Amiloride] | 6.80 | 11.06 | MATE2 (uptake ratio) (MATE2K): 6.8; MATE2K ratio in this study (MATE2K): 6.80; MATE1 (uptake ratio) (MATE1): 11.06; MATE1 ratio in this study (MATE1): 11.06 |
| COc1ccc2c(c1)[C@@]13CCCC[C@H]1[C@@H](C2)NCC3 [3-Methoxymorphinan] | 1.19 | 1.14 | MATE2 (uptake ratio) (MATE2K): 1.19; MATE1 (uptake ratio) (MATE1): 1.14 |
| COc1ccc2[nH]cc(CCN)c2c1 [5-Methoxytryptamine] | 1.66 | 3.49 | MATE2 (uptake ratio) (MATE2K): 1.66; MATE1 (uptake ratio) (MATE1): 3.49 |
| C[C@H](N)C(=O)c1ccccc1 [Cathinone] | 1.31 | 1.14 | MATE2 (uptake ratio) (MATE2K): 1.31; MATE1 (uptake ratio) (MATE1): 1.14 |
| CC(C)(N)Cc1ccccc1 [Phentermine] | 1.76 | 1.20 | – |
| N#CC(CCN1CCC(C(N)=O)(N2CCCCC2)CC1)(c1ccccc1)c1ccccc1 [Piritramide] | 1.17 | 1.25 | – |
| CNCC(O)c1ccc(O)c(OC)c1 (centres unmarked) [Metanephrine] | 1.71 | 4.97 | – |
| Nc1ccncc1 [Fampridine (4-aminopyridine), 4-aminopyridine] | 1.23 | 1.94 | – |
| CC[C@@H](c1cccc(O)c1)[C@@H](C)CN(C)C [Tapentadol] | – | – | MATE2 (MATE2K): 1.1; MATE1 (MATE1): 1.18 |
| CCN(CC)CCNC(=O)c1cc(Cl)c(N)cc1OC [Metoclopramide] | 1.26 | 1.08 | – |
| COc1cc2nc(N3CCN(C(=O)C4CCCO4)CC3)nc(N)c2cc1OC (centres unmarked) [Terazosin] | – | – | MATE2 (MATE2K): 1.28; MATE1 (MATE1): 1.17 |
| CCOC(=O)C1(c2ccccc2)CCN(C)CC1 [Pethidine] | 2.82 | 1.80 | – |
| CN(C)CCC=C1c2ccccc2CCc2ccccc21 [Amitriptyline] | 1.03 | 1.13 | MATE2 (uptake ratio) (MATE2K): 1.03; MATE1 (uptake ratio) (MATE1): 1.13 |
| Minoxidil | 1.54 | 1.56 | Substrate specificity among MATE1, MATE2K, OCT1, OCT2 [1]: OCT2 only |
| CCN1CCC[C@H]1CNC(=O)c1cc(S(N)(=O)=O)ccc1OC [Sulpiride (S)] | – | – | MATE1 (MATE1): 22.45 |

| Molecule | MATE2K ratio (MATE2K) | MATE1 ratio (MATE1) | also measured |
| --- | --- | --- | --- |
| CN1C[C@H](C(=O)N[C@]2(C)O[C@@]3(O)[C@@H]4CCCN4C(=O)[C@H](Cc4ccccc4)N3C2=O)C[C@@H]2c3cccc4[nH]cc(c34)C[C@H]21 [Dihydroergotamine] | 1.19 | 1.19 | – |
| CC(C)C[C@H]1C(=O)N2CCC[C@H]2[C@]2(O)O[C@](NC(=O)[C@@H]3C=C4c5cccc6[nH]c(Br)c(c56)C[C@H]4N(C)C3)(C(C)C)C(=O)N12 [Bromocriptine] | 1.48 | 1.58 | MATE2 (uptake ratio) (MATE2K): 1.48; MATE1 (uptake ratio) (MATE1): 1.58 |
| COc1ccc2c(c1)[C@]13CCCC[C@@H]1[C@H](C2)N(C)CC3 [Dextromethorphan] | 1.14 | 1.04 | – |
| Maraviroc | – | 1.58 | – |
| Clc1cccc(N2CCNCC2)c1 [1-(3-Chlorophenyl)piperazine] | 0.89 | 1.27 | MATE2 (uptake ratio) (MATE2K): 0.89; MATE1 (uptake ratio) (MATE1): 1.27 |
| O=C(O)Cc1ccccc1Nc1c(Cl)cccc1Cl [Diclofenac] | 0.73 | 1.00 | – |
| COC(=O)[C@H]1[C@@H](OC(=O)c2ccccc2)C[C@@H]2CC[C@H]1N2C [Cocaine] | 1.60 | 1.34 | MATE2 (uptake ratio) (MATE2K): 1.6; MATE1 (uptake ratio) (MATE1): 1.34 |
| CCOc1ccccc1OC(c1ccccc1)C1CNCCO1 (centres unmarked) [Reboxetine] | 0.94 | 0.95 | MATE2 (MATE2K): 0.94; MATE1 (MATE1): 0.95 |
| CCN(C)C(=O)Oc1cccc([C@H](C)N(C)C)c1 [Rivastigmine] | – | – | MATE1 (MATE1): 0.98 |
| CN[C@@H](C)Cc1ccccc1 [Metamfetamine] | 1.97 | 1.53 | MATE2K ratio in this study (MATE2K): 1.97; MATE1 ratio in this study (MATE1): 1.53 |
| COc1ccc2c3c1O[C@H]1C(=O)CC[C@@]4(O)[C@@H](C2)N(C)CC[C@]314 [Oxycodone] | 1.21 | 1.09 | – |
| CCN1CCCC1CNC(=O)c1cc(S(N)(=O)=O)ccc1OC (centres unmarked) [Sulpiride] | – | above 2 | MATE2 (MATE2K): 21.71; MATE2K ratio in this study (MATE2K): 21.71; MATE1 (MATE1): 23.85; MATE1 ratio in this study (MATE1): 23.85 |
| CC[C@@H](CO)NC(=O)[C@@H]1C=C2c3cccc4c3c(cn4C)C[C@H]2N(C)C1 [Methysergide] | 1.20 | 1.06 | – |
| COC(=O)C(c1ccccc1)C1CCCCN1 (centres unmarked) [Methylphenidate] | 1.40 | 1.16 | – |
| C[N+]1(C)CCC(OC(=O)C(O)(c2ccccc2)C2CCCC2)C1.[Br-] (centres unmarked) [Glycopyrrolate] | – | – | eliminated unchanged via the kidneys [2]: more than 70% |
| N#C[C@@H]1CCCN1C(=O)CNC12CC3CC(CC(O)(C3)C1)C2 [Vildagliptin] | – | – | MATE2 (MATE2K): 1.06 |
| CNC1(c2ccccc2Cl)CCCCC1=O (centres unmarked) [Ketamine] | 1.12 | 1.27 | – |
| COCCCN1CCC(NC(=O)c2cc(Cl)c(N)c3c2OCC3)CC1 [Prucalopride] | – | – | MATE2 (MATE2K): 1.07 |
| NS(=O)(=O)c1cc2c(cc1Cl)NCNS2(=O)=O [Hydrochlorothiazide] | 2.50 | 2.15 | – |
